# From PubChem BioAssay AID2751 (The Scripps Research Institute Molecular Screening Center, 2010)
# The chains behind the UniProt entries cited, without tags or fusion partners.
# UniProt Q4J6C6, whole entry, looked up: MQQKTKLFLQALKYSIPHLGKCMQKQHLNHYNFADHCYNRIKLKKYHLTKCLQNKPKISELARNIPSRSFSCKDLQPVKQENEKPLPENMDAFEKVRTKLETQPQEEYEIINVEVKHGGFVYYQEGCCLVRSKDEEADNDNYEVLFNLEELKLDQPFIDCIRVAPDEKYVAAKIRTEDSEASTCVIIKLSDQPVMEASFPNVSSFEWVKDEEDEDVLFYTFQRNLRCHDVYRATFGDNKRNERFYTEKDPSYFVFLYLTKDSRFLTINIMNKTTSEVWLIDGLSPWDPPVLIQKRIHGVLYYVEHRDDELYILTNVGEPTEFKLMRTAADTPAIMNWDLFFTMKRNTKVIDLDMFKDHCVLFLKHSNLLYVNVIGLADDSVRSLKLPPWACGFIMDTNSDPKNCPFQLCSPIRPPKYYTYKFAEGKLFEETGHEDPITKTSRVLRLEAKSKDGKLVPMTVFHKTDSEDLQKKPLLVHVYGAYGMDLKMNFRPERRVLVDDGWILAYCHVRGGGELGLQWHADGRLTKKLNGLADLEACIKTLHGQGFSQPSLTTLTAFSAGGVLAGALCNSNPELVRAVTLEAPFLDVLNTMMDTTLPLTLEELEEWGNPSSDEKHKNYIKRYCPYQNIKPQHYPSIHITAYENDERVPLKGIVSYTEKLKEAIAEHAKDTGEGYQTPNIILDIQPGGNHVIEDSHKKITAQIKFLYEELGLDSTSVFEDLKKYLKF
# Only a part is listed here, and it is no random draw. Calls of active or inactive are those of the source. No stated cut-off is given here; in the data, active means inhibition above about 43%; inactive means the rest.
# Target: Prolyl endopeptidase-like (Homo sapiens) (UniProt Q4J6C6)
# Assay: human PREPL activity-probe blockers – biochemical, fluorescence polarization, primary screen (AID 2751);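 further: 0% = enzyme with DMSO and 100% = wells lacking enzyme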
# Conditions: recombinant PREPL, fluorescence polarization activity-based probe; at 5.96 µM; hits give high values
row,SMILES,inhibition
1,O=P(Nc1nccs1)(c1ccccc1)c1nc2ccccc2s1 (stereo not given),inactive: -1.92%
2,CCOP1(=S)c2c(C)nn(CCC#N)c2N=C(c2ccccc2F)N1C (stereo not given),inactive: 4.67%
3,Nc1ccccc1[As](=O)(O)c1ccccc1,inactive: 2.52%
4,O=C(O)COc1ccc([As](=O)(O)O)cc1[N+](=O)[O-],inactive: 11.7%
5,NC(=O)Nc1ccc([As](=O)(O)O)cc1,inactive: -1.1%
6,CN(C(=O)Cc1ccc(Cl)c(Cl)c1)[C@H]1CC[C@@]2(CCCO2)C[C@@H]1N1CCCC1,inactive: 37.7%
7,O=[N+]([O-])c1ccc2c(c1)nnn2O,inactive: 3.64%
8,CN(C)C(=O)c1cc([N+](=O)[O-])cc2c1-c1c(cc([N+](=O)[O-])cc1[N+](=O)[O-])C2=O,inactive: 37.1%
9,CN(C(=O)Cc1ccccc1)[C@@H]1CC[C@]2(CCCO2)C[C@H]1N1CCCC1,inactive: 4.58%
10,CCOP1(=S)c2c(C)nn(CCC#N)c2N=C(c2ccc(F)cc2)N1C (stereo not given),inactive: 28.6%
11,N#CCCN(C(=O)COC(=O)C(O)(c1ccccc1)c1ccccc1)c1ccc(F)cc1,inactive: 6.18%
12,CS(=O)(=O)c1ccc(Cl)c(NC(=O)COC(=O)C(O)(c2ccccc2)c2ccccc2)c1,inactive: 2.03%
13,O=[As](O)(O)c1cccnc1,inactive: 12.3%
14,COc1cc(C(=O)NCC2(N3CCOCC3)CCCCC2)cc(Cl)c1OC(C)C,inactive: 0.7%
15,O=C(OC1CN2CCC1CC2)c1ccc(Cl)cc1 (stereo not given),inactive: -7.52%
16,Cc1cccc(OCC(=O)OC2CN3CCC2CC3)c1 (stereo not given),inactive: 10.2%
17,O=[As](O)(c1cccc(O)c1)c1cccc(O)c1,inactive: 1.42%
18,CCCOP(=S)(Nc1nc(N)cc(=O)[nH]1)OCCC,inactive: 6.33%
19,Cc1ccc(NCCc2c([N+](=O)[O-])cc([N+](=O)[O-])cc2[N+](=O)[O-])cc1,inactive: 22.5%
20,Nc1cccc2c([As](=O)(O)O)cccc12,inactive: 33.7%
21,CCOP(=O)(Nc1cccc2ccccc12)OCC,inactive: 5.73%
22,COc1cc(C2NCCC3(OCCO3)C2(C)C)cc(OC)c1OC (stereo not given),inactive: 0.63%
23,CCOP(=O)(Nc1ccc(C)cn1)OCC,inactive: 11.1%

row,SMILES,inhibition
1,CN(CCCl)Cc1cc(Cl)c(NC2=NCCN2)c(Cl)c1,inactive: 10.8%
2,CCOP(=O)(NC(=NC(C)c1ccccc1)NC(C)c1ccccc1)OCC (stereo not given),inactive: 13.3%
3,O=P1(Nc2ccccn2)COc2ccccc2OC1,inactive: 4.77%
4,CCC1=CC2Cc3nc4ccc(Cl)cc4c(N)c3C(C1)C2 (stereo not given),inactive: 21.6%
5,CC(C)(C)C(=O)NC(Sc1ncccn1)C(Cl)(Cl)Cl (stereo not given),inactive: -9.25%
6,Clc1n[nH]nc1-c1nn[nH][15n]1,inactive: 0.51%
7,COc1ccccc1CNC(=O)COC(=O)C(O)(c1ccccc1)c1ccccc1,inactive: -0.51%
8,CC1(CBr)Cn2c(nc3ccccc3c2=O)S1 (stereo not given),inactive: -13.8%
9,O=[As](O)(c1ccccc1Br)c1ccccc1Br,inactive: 5.67%
10,CC(C)/C=N\N=C(\N)N[N+](=O)[O-],inactive: -8.76%
11,CN(C(=O)Cc1ccc(Cl)c(Cl)c1)[C@@H]1CCCC[C@H]1N1CCCC1,inactive: 41.7%
12,CC1CCC(C(C)C)C(OP(=O)(Nc2ccccn2)c2ccccc2)C1 (stereo not given),inactive: 2.23%
13,Cc1ccc(C(=O)OC2CN3CCC2CC3)cc1 (stereo not given),inactive: -18.1%
14,Cc1nn(-c2ccccc2)c2c1P(=O)(N1CCOCC1)N(C)C(c1ccccc1)=N2 (stereo not given),inactive: 2.62%
15,O=C(/C=C/c1ccccc1)OC1CN2CCC1CC2 (stereo not given),inactive: 1.07%
16,CN(C)C1(CNC(=O)c2ccc(S(C)(=O)=O)cc2)CCCCC1,inactive: 1.76%
17,O=P1(Nc2ncccn2)COc2ccccc2OC1,inactive: 1.02%
18,Cc1ccc(OCC(=O)OC2CN3CCC2CC3)cc1 (stereo not given),inactive: -7.48%
19,O=[As](O)(c1cccs1)c1cccs1,inactive: 10.5%
20,O=P1(Nc2ccc(Br)cn2)COc2ccccc2OC1,inactive: 5.41%
21,NS(=O)(=O)c1cccc(NC(=O)COC(=O)C(O)(c2ccccc2)c2ccccc2)c1,inactive: -1.45%
22,Nc1cccc([As](=O)(O)c2ccccc2)c1,inactive: 16.8%
